From PMC6968685 (Journal of Enzyme Inhibition and Medicinal Chemistry, 2020)

Tests used:
Type in all cases: cell-based
[1] = test system: T. brucei brucei AnTat 1.9; experiment: In vitro antitrypanosomal activity, Alamar Blue assay; settings: SI = CC50 HepG2 / IC50 Trypanosoma brucei brucei
Protocol: The effects of the tested compounds on the growth of T. brucei brucei were assessed using an Alamar Blue® assay described by Räz et al.[49] T. brucei brucei AnTat 1.9 (IMTA, Antwerpen, Belgium) was cultured in MEM with Earle’s salts, supplemented according to the protocol of Baltz et al.[50] with the following modifications: 0.5 mM mercaptoethanol (Sigma Aldrich), 1.5 mM L-cysteine (Sigma Aldrich), 0.05 mM bathocuproine sulphate (Sigma Aldrich), and 20% heat-inactivated horse serum (Gibco, France) at 37 °C and 5% CO2. Samples were incubated at an average density of 2000 parasites/well in sterile 96-wells plates (Fisher, France) with various concentrations of compounds dissolved in 0.9% NaCl. All doses were tested in duplicate. Appropriate controls treated with solvents 0.9% NaCl or DMSO or with suramin, pentamidine, eflornithine, and fexinidazole (reference drugs purchased from Sigma Aldrich and Fluorochem, UK) were added to each set of experiments. After 69 h incubation period at 37 °C, 10 µl of the viability marker Alamar Blue (Fisher) was added to each well, and the plates were incubated for 5 h. The plates were read in a PerkinElmer ENSPIRE (Germany) microplate reader using an excitation wavelength of 530 nm and an emission wavelength of 590 nm. […] IC50 values were calculated using a nonlinear regression analysis of dose-response curves performed using GraphPad Prism software (La Jolla, CA). IC50 values were calculated from three independent experiments.

[2] = test system: P. falciparum CQ-sensitive strain 3D7; experiment: In vitro antiplasmodial activity, SYBR Green I fluorescence-based method, strain 3D7; settings: SI = CC50 HepG2 / IC50 P. falciparum 3D7
Protocol: (§1) The in vitro antiplasmodial activities were tested over concentrations ranging from […] against culture-adapted P. falciparum reference strains 3D7 and W2. […] The parasites were cultivated in RPMI medium (Sigma-Aldrich, Lyon, France) supplemented with 0.5% Albumax I (Life Technologies Corporation, Paisley, UK), hypoxanthine (Sigma-Aldrich), and gentamicin (Sigma-Aldrich) with human erythrocytes and were incubated at 37 °C in a candle jar, as described previously[43] .The P. falciparum drug susceptibility test was carried out in 96-well flat-bottom sterile plates in a final volume of 250 µl. After 48 h incubation period with the drugs, quantities of DNA in treated and control cultures of parasites in human erythrocytes were quantified using the SYBR Green I (Sigma-Aldrich) fluorescence-based method[44]^,[45]. Briefly, after incubation, plates were frozen at −20 °C until use. Plates were then thawed for 2 h at room temperature, and 100 µl of each homogenised culture was transferred to a well of a 96-well flat-bottom sterile black plate (Nunc, Inc., Rochester, NY) that contained 100 µl of the SYBR Green I lysis buffer (2xSYBR Green, 20 mM Tris base pH 7.5, 5 mM EDTA, 0.008% w/v saponin, 0.08% w/v Triton X-100). […] Plates were incubated for 1 h at room temperature and then read on a fluorescence plate reader (Tecan, Grödig, Austria) using excitation and emission wavelengths of 485 and 535 nm, respectively. IC50 values were calculated by non-linear regression analysis of data from dose-response curves, using TableCurve 2D version 5.0 software (Systat Software, San Jose, CA). IC50 values are reported as means calculated from three independent experiments.

[3] = test system: P. falciparum CQ-resistant strain W2; experiment: In vitro antiplasmodial activity, SYBR Green I fluorescence-based method, strain W2; settings: SI = CC50 HepG2 / IC50 P. falciparum W2
Protocol: as §1

CN(C)CCCNCc1ccc(-c2cc(-c3ccc(CNCCCN(C)C)cc3)c3ccccc3n2)cc1 [Compound 1b, 2,4-Bis{4-[(3-dimethylaminopropyl)aminomethyl]phenyl}quinoline]
Selectivity index HepG2/Tryp. [1]: 5.00
Selectivity index HepG2/3D7 [2]: 8.70

CN(C)CCNCc1ccc(-c2cc(-c3ccc(CNCCN(C)C)cc3)c3ccccc3n2)cc1 [Compound 1c, 2,4-Bis{4-[(2-dimethylaminoethyl)aminomethyl]phenyl}quinoline]
Selectivity index HepG2/W2 [3]: 9.11
Selectivity index HepG2/Tryp. [1]: 2.09
Selectivity index HepG2/3D7 [2]: 97 and 96.88

CN1CCN(CCCNCc2ccc(-c3cc(-c4ccc(CNCCCN5CCN(C)CC5)cc4)c4ccccc4n3)cc2)CC1 [Compound 1e, 2,4-Bis{4-[(3–(4-methylpiperazin-1-yl)propyl)aminomethyl]phenyl}quinoline]
Selectivity index HepG2/W2 [3]: 8.78
Selectivity index HepG2/Tryp. [1]: 6.36
Selectivity index HepG2/3D7 [2]: 24.10

CN1CCN(CCNCc2ccc(-c3cc(-c4ccc(CNCCN5CCN(C)CC5)cc4)c4ccccc4n3)cc2)CC1 [Compound 1f, 2,4-Bis{4-[(2–(4-methylpiperazin-1-yl)ethyl)aminomethyl]phenyl}quinoline]
Selectivity index HepG2/W2 [3]: 31.46
Selectivity index HepG2/Tryp. [1]: 4.13
Selectivity index HepG2/3D7 [2]: 1.69

c1ccc2c(-c3ccc(CNCCCN4CCOCC4)cc3)cc(-c3ccc(CNCCCN4CCOCC4)cc3)nc2c1 [Compound 1g, 2,4-Bis{4-[(3-morpholinopropyl)aminomethyl]phenyl}quinoline]
Selectivity index HepG2/Tryp. [1]: 3.87
Selectivity index HepG2/3D7 [2]: 14.85

c1cc(CNCCCN2CCOCC2)cc(-c2cc(-c3cccc(CNCCCN4CCOCC4)c3)c3ccccc3n2)c1 [Compound 1s, 2,4-Bis{3-[(3-morpholinopropyl)aminomethyl]phenyl}quinoline]
Selectivity index HepG2/Tryp. [1]: 3.60
Selectivity index HepG2/3D7 [2]: 12.52

c1cc(CNCCN2CCOCC2)cc(-c2cc(-c3cccc(CNCCN4CCOCC4)c3)c3ccccc3n2)c1 [Compound 1t, 2,4-Bis{3-[(2-morpholinoethyl)aminomethyl]phenyl}quinoline]
Selectivity index HepG2/Tryp. [1]: 8.54
Selectivity index HepG2/3D7 [2]: 17.09

CN(C)CCCNCc1ccc(-c2cc3ccccc3c(-c3ccc(CNCCCN(C)C)cc3)n2)cc1 [Compound 2b, 1,3-Bis{4-[(3-dimethylaminopropyl)aminomethyl]phenyl}isoquinoline]
Selectivity index HepG2/W2 [3]: 1.15
Selectivity index HepG2/Tryp. [1]: 9.91
Selectivity index HepG2/3D7 [2]: 1.90

COc1ccc2cc(-c3ccc(CNCCCCN(C)C)cc3)nc(-c3ccc(CNCCCCN(C)C)cc3)c2c1 [Compound 2e, 7-Methoxy-1,3-bis{4-[(4-dimethylaminobutyl)aminomethyl]phenyl}isoquinoline]
Selectivity index HepG2/W2 [3]: 1.58
Selectivity index HepG2/Tryp. [1]: 17.4
Selectivity index HepG2/3D7 [2]: 2.17

COc1ccc2cc(-c3ccc(CNCCCN(C)C)cc3)nc(-c3ccc(CNCCCN(C)C)cc3)c2c1 [Compound 2f, 7-Methoxy-1,3-bis{4-[(3-dimethylaminopropyl)aminomethyl]phenyl}isoquinoline]
Selectivity index HepG2/W2 [3]: 0.45
Selectivity index HepG2/Tryp. [1]: 4.07
Selectivity index HepG2/3D7 [2]: 1.44

COc1ccc2c(-c3ccc(CNCCCCN(C)C)cc3)nc(-c3ccc(CNCCCCN(C)C)cc3)cc2c1 [Compound 2i, 6-Methoxy-1,3-bis{4-[(4-dimethylaminobutyl)aminomethyl]phenyl}isoquinoline]
Selectivity index HepG2/W2 [3]: 4.48
Selectivity index HepG2/Tryp. [1]: 16.81
Selectivity index HepG2/3D7 [2]: 1.27

COc1ccc2c(-c3ccc(CNCCCN(C)C)cc3)nc(-c3ccc(CNCCCN(C)C)cc3)cc2c1 [Compound 2j, 6-Methoxy-1,3-bis{4-[(3-dimethylaminopropyl)aminomethyl]phenyl}isoquinoline]
Selectivity index HepG2/W2 [3]: 0.42
Selectivity index HepG2/Tryp. [1]: 3.66
Selectivity index HepG2/3D7 [2]: 0.30

CN(C)CCCNCc1ccc(-c2nc(-c3ccc(CNCCCN(C)C)cc3)c3ccccc3n2)cc1 [Compound 3b, 2,4-Bis{4-[(3-dimethylaminopropyl)aminomethyl]phenyl}quinazoline]
Selectivity index HepG2/Tryp. [1]: 3.40
Selectivity index HepG2/3D7 [2]: 6.47

c1ccc2c(-c3ccc(CNCCCN4CCOCC4)cc3)nc(-c3ccc(CNCCCN4CCOCC4)cc3)nc2c1 [Compound 3f, 2,4-Bis{4-[(3-morpholinopropyl)aminomethyl]phenyl}quinazoline]
Selectivity index HepG2/Tryp. [1]: 5.58
Selectivity index HepG2/3D7 [2]: 10.76

c1ccc2c(-c3ccc(CNCCN4CCOCC4)cc3)nc(-c3ccc(CNCCN4CCOCC4)cc3)nc2c1 [Compound 3g, 2,4-Bis{4-[(2-morpholinoethyl)aminomethyl]phenyl}quinazoline]
Selectivity index HepG2/Tryp. [1]: 3.21
Selectivity index HepG2/3D7 [2]: 27.20

COc1ccc2nc(-c3ccc(CNCCCCN(C)C)cc3)nc(-c3ccc(CNCCCCN(C)C)cc3)c2c1 [Compound 3h, 6-Methoxy-2,4-bis{4-[(4-dimethylaminobutyl)aminomethyl]phenyl}quinazoline]
Selectivity index HepG2/W2 [3]: 3.17
Selectivity index HepG2/Tryp. [1]: 43 and 43.22
Selectivity index HepG2/3D7 [2]: 3.04

COc1ccc2nc(-c3ccc(CNCCCN(C)C)cc3)nc(-c3ccc(CNCCCN(C)C)cc3)c2c1 [Compound 3i, 6-Methoxy-2,4-bis{4-[(3-dimethylaminopropyl)aminomethyl]phenyl}quinazoline]
Selectivity index HepG2/W2 [3]: 0.44
Selectivity index HepG2/3D7 [2]: 0.48

COc1ccc2nc(-c3ccc(CNCCN(C)C)cc3)nc(-c3ccc(CNCCN(C)C)cc3)c2c1 [Compound 3j, 6-Methoxy-2,4-bis{4-[(2-dimethylaminoethyl)aminomethyl]phenyl}quinazoline]
Selectivity index HepG2/W2 [3]: 2.54
Selectivity index HepG2/3D7 [2]: 0.77

COc1ccc2c(-c3ccc(CNCCCCN(C)C)cc3)nc(-c3ccc(CNCCCCN(C)C)cc3)nc2c1 [Compound 3m, 7-Methoxy-2,4-bis{4-[(4-dimethylaminobutyl)aminomethyl]phenyl}quinazoline]
Selectivity index HepG2/W2 [3]: 5.95
Selectivity index HepG2/Tryp. [1]: 33.51
Selectivity index HepG2/3D7 [2]: 21.30

c1cc(CNCCN2CCOCC2)cc(-c2nc(-c3cccc(CNCCN4CCOCC4)c3)c3ccccc3n2)c1 [Compound 3v, 2,4-Bis{3-[(2-morpholinoethyl)aminomethyl]phenyl}quinazoline]
Selectivity index HepG2/Tryp. [1]: 4.72
Selectivity index HepG2/3D7 [2]: 17.94

Values joined by “and” are separate entries in the source; they are usually repeats but may differ in a detail not shown here. Identical values can stand only once.
